Laboratory results from patent publication US7183251B1, “hCG therapy for the treatment of breast cancer” (Fox Chase Cancer Center, priority 1998, dated 2007).
Entries after “also recorded” stand apart in the source; their conditions may differ.

Tests used:
Type in all cases: in vivo, human
metastatic breast cancer = test: Open-label study of r-hCG in metastatic breast cancer in postmenopausal women
Text: The primary objective of this study was to assess the effect of r-hCG on the tumor response rate of bi-dimensionally measurable or palpable lesions. The secondary objectives were: i.) to assess the effect of r-hCG treatment on symptoms caused by metastatic breast tumor lesions, ii.) to determine whether r-hCG exerts any adverse systemic effects, iii.) to measure time to tumor progression and, iv.) to determine the effects of r-hCG on endocrinology parameters and tumor markers.
Thirteen postmenopausal women diagnosed with biopsy-proven breast cancer and clinical evidence of metastatic disease were entered in the study. Patients are treated with 500 mcg of r-hCG three times per week for at least two months. Tumor assessment and measurement of target indicator lesions are performed every two months by X-ray, CT scan, MRI or physical examination. After 60 days of treatment, a re-evaluation of metastatic lesions is performed using the same diagnostic procedure(s). In the event of disease progression (i.e., appearance of new tumor or growth of indicator lesions by at least 25% in square dimensions) study treatment is discontinued, otherwise, treatment is continued, with patient re-evaluations every eight weeks, until progressive disease is noted.

primary breast cancer = test: r-hCG in newly diagnosed primary breast cancer: cell proliferation by Ki67 immunocytochemistry; settings: nine r-hCG patients with positive lymph nodes at surgery; compared with needle biopsy
Protocol: The efficacy of hCG was evaluated by treating with this hormone patients with newly diagnosed primary breast cancer. The efficacy of treatment was assessed by determining whether administration of 10,000 IU hCG on alternate days for 2 weeks to women with newly diagnosed breast cancer will reduce tumor size, inhibit cell proliferation, and modify the percentage of cells expressing estrogen and progesterone receptors. The systemic effect of the hormone was evaluated by determining serum levels of pituitary and ovarian hormones at various times of treatment. R-hCG was used in this study.
Patient Selection and Accrual. Twenty-five postmenopausal women took part in the study. The patients had palpable and bidemensionally measurable primary breast cancer larger than 1.5 cm in clinical diameter. The tumor was confirmed by histopathological analysis. No evidence of metastatic disease was observed when entering the study. Patients had adequate bone marrow, hepatic and renal function. Patients with ulcerated tumors, skin involvement of inflammatory breast cancer were excluded. No concomitant pituitary nor ovarian tumors were observed among the patients. There was no active thrombophlebitis or a history of allergy to hCG. None of the patients had hormonal replacement therapy. […] The primary tumor was measured by clinical examination, mammography and sonography immediately before surgery. […]

[1] = r-hCG in primary breast cancer: serum hormone levels by RIA; settings: for serum levels of FSH, estradiol, inhibin, progesterone (b94 also LH): days 0, 5, 9, 13 of treatment
Text: Specimen Collection and Post-Surgical Treatment. After informed consent, the patient underwent core biopsies of the primary tumor under local anesthesia with a pistol fitted with a 12 to 14 gauge tru-cut type biopsy needles (Bard, Covington, USA). This procedure represents the standard of care, therefore no departure from routine diagnostic procedures was required. The core needle biopsy was examined by frozen section technique. If the frozen section was positive for malignancy, then three additional needle biopsies were obtained from the tumor for evaluating the surrogate markers listed below. On the same day 0 (pretreatment) a serum sample was taken for determination of basal levels of inhibin, estrogen, progesterone, FSH, LH and the beta subunit of hCG. The serum sample, as was the case for all subsequent sera, was derived from the blood sample and frozen immediately at −70° C. until the day of shipment to the research laboratory. The other serum samples were obtained at days 5, 9 and 13. At day 15 of hCG treatment the patient underwent surgery, which consisted of mastectomy when the tumoral mass (including ‘in situ’ components) was considered to be larger than 3 cm; otherwise the breast was conserved and a lumpectomy was performed. Breast conservation was only practiced when the surgical margins were free of disease. Lymph node dissection of the axilla was routineously performed. All resected tissues was sent to the laboratory of pathology for microscopical examination.
The systemic effects of this hormonal treatment was evaluated by determining serum levels of the pituitary hormones FSH and LH, and the ovarian hormones estrogen, progesterone, and inhibin as markers of hCG activity. Ten ml of blood were drawn on days 0, 5, 9 and 13 of treatment, from 26 patients. The serum was separated immediately upon drawing, frozen at −80° C. and the specimens were identified with the patient trial number, date, and sequence in the number in the treatment. The sera were shipped from Belgium to the clinical laboratory in dry ice by express mail. All specimens were identified upon arrival at the laboratory by experiment number and an accession number which was sequentially assigned by date of arrival.
Frozen serum samples were shipped to InterScience Institute (ISI), Inglewood, Calif., for radio immunoassay (RIA) quantitative determination of levels of the following hormones: hCG beta subunit, estradiol, progesterone, FSH; LH; and inhibin. Quantitative determination of beta-hCG was confirmed by SmithKline—Beechman Clinical Laboratories in Philadelphia, Pa.

[2] = of 12 who completed the 60 day visit

r-hCG: recombinant human chorionic gonadotropin, glycoprotein hormone composed of two non-covalently linked (α and β) subunits
patients with stable disease (metastatic breast cancer; 500 mcg three times per week): Six of the thirteen | reduction in liver metastases in partial responders (metastatic breast cancer; 500 mcg three times per week): greater than 50% | patients classified as partial responses (metastatic breast cancer; 500 mcg three times per week, thirteen patients entered): Two | patients dropped out due to progressive disease (metastatic breast cancer; [2]): four | patients remaining on active treatment in the maintenance phase (metastatic breast cancer; [2]): eight | rate of cell proliferation of metastatic cells in positive lymph nodes (primary breast cancer): significantly lower than in the needle biopsy | serum levels of FSH, estradiol, inhibin, progesterone (b94 also LH) [1]: Neither the r-hCG nor the placebo treatments modified | serum levels of FSH, estradiol, inhibin, progesterone (b94 also LH) ([1]; listed as R-hCG): did not modify | serum level of LH ([1]; r-hCG over placebo, any time point sampled): no statistically significant increase | serum level of b-hCG ([1]; vs placebo at 5, 9 and 13 days of treatment (p<0.0001, P<0.004, p<0.007)): significant difference; also recorded: elevated
